Results as given in patent publication US12528818B2, “Compositions and methods for inhibition of RAS” (Leidos Biomedical Research, Inc., priority 2021, dated 2026).

Legend:
[1] = target: GppNHp-loaded KRAS4b (amino acids 1-169) G12C/C118S protein (Homo sapiens, UniProt P01116, C118S/G12C); experiment: Covalent cysteine 12 modification by MALDI-TOF MS, GppNHp-loaded KRAS G12C; format: biochemical; conditions: 15 minutes reaction time
[2] = target: Avi-KRAS G12C (1-169) GppNHp/RAF1 RBD-3xFLAG (52-151) (Homo sapiens, UniProt P01116, G12C); experiment: biochemical; conditions: Raf1-GppNHp-KRAS G12C disruption, Raf1 RBD-KRAS G12C-GppNHp disruption assay IC50
[3] = target: GDP-loaded KRAS4b (amino acids 1-169) G12C/C118S protein (Homo sapiens, UniProt P01116, C118S/G12C); experiment: Covalent cysteine 12 modification by MALDI-TOF MS, GDP-loaded KRAS G12C; format: biochemical; conditions: 15 minutes reaction time
[4] = compound 95 or later using 1 μM proteins
[5] = compounds 94 or before using 5 μM proteins

Structure (SMILES)	GppNHp-KRAS G12C percent of modification [1, 4]	IC50 [2]	GDP-KRAS G12C percent of modification [3, 4]	GppNHp-KRAS G12C percent of modification [1, 5]	GDP-KRAS G12C percent of modification [3, 5]
CC#CC(=O)N(C)C1CN(c2nc(OCC34CCCN3CCC4)nc3c(F)c(-c4ccc(F)c5sc(N)nc45)c(Cl)cc23)C1 [Compound 172]	D (percent of modification <10%)	0.5 to 5 µM	B (50≤percent of modification <70%)	–	–
C=CC(=O)N1CC2(C1)CN(c1ncnc3c(F)c(-c4ccc(F)c5sc(N)nc45)c(Cl)cc13)C2 [Compound 28]	–	> 20 µM	–	D (percent of modification <10%)	A (percent of modification ≥70%)
C=CC(=O)N1CCN(c2nc(OC[C@@H]3CCCN3C)nc3c(F)c(-c4ccc(F)c5sc(N)nc45)c(Cl)cc23)CC1 [Compound 44]	–	0.5 to 5 µM	–	C (10%≤percent of modification <50%)	A (percent of modification ≥70%)
C=CC(=O)N1CC[C@@H](N(CC)c2nc(OCC34CCCN3CCC4)nc3c(F)c(-c4ccc(F)c5sc(N)nc45)c(C(F)(F)F)cc23)C1 [Compound 249]	A (percent of modification ≥70%)	< 0.5 µM	A (percent of modification ≥70%)	–	–
C=CC(=O)N1CCN(c2nc(OC[C@@H]3CCCN3CCF)nc3c(F)c(-c4ccc(F)c5sc(N)nc45)c(C(F)(F)F)cc23)CC1 [Compound 153]	D (percent of modification <10%)	0.5 to 5 µM	B (50≤percent of modification <70%)	–	–
C=CC(=O)N1CCC(Nc2nc(OC[C@@H]3CCCN3C)nc3c(F)c(-c4ccc(F)c5sc(N)nc45)c(Cl)cc23)CC1 [Compound 47]	–	5 to 20 µM	–	C (10%≤percent of modification <50%)	A (percent of modification ≥70%)

The remaining lines, values ahead:

GppNHp-KRAS G12C percent of modification [1, 4]	IC50 [2]	GDP-KRAS G12C percent of modification [3, 4]	GppNHp-KRAS G12C percent of modification [1, 5]	GDP-KRAS G12C percent of modification [3, 5]	Structure (SMILES)
C (10%≤percent of modification <50%)	< 0.5 µM	A (percent of modification ≥70%)	–	–	C=CC(=O)N1CCN(c2nc(OC[C@@]34CCCN3C[C@H](F)C4)nc3c(F)c(-c4ccc(F)c5sc(N)nc45)c(C(F)(F)F)cc23)CC1 [Compound 194]
–	> 20 µM	–	D (percent of modification <10%)	C (10%≤percent of modification <50%)	C=CC(=O)N1CC(Nc2nc(O)nc3c(F)c(-c4ccc(F)c5sc(N)nc45)c(Cl)cc23)C1 [Compound 50]
–	0.5 to 5 µM	–	C (10%≤percent of modification <50%)	A (percent of modification ≥70%)	C=CC(=O)N1CCN(c2nc(OC[C@@H]3CCCN3C)nc3c(F)c(-c4ccc(F)c5sc(N)nc45)c(Cl)cc23)C[C@@H]1C [Compound 56]
–	< 0.5 µM	–	B (50≤percent of modification <70%)	A (percent of modification ≥70%)	CC#CC(=O)N1CC(Nc2nc(OC[C@@H]3CCCN3C)nc3c(F)c(-c4ccc(F)c5sc(N)nc45)c(Cl)cc23)C1 [Compound 92, 1-[3-[[7-(2-amino-7-fluoro-1,3-benzothiazol-4-yl)-6-chloro-8-fluoro-2-[[(2S)-1-methylpyrrolidin-2-yl]methoxy]quinazolin-4-yl]amino]azetidin-1-yl]but-2-yn-1-one]
–	> 20 µM	–	D (percent of modification <10%)	B (50≤percent of modification <70%)	C=CC(=O)NCCNc1nc(OC[C@@H]2CCCN2C)nc2c(F)c(-c3ccc(F)c4sc(N)nc34)ncc12 [Compound 48]
D (percent of modification <10%)	0.5 to 5 µM	C (10%≤percent of modification <50%)	–	–	C=CC(=O)N1CCN(c2nc(OC[C@@H]3CCCN3C)nc3c(F)c(-c4ccc(F)c5sc(N)nc45)c(C4CC4)cc23)CC1 [Compound 176]
